Test results reported in patent US20050214217A1, “Methods of and pharmaceutical compositions for modulating T-lymphocyte adhesion, migration, gene expression and function by Glutamate and analogs thereof” (priority 2004, published 2005).

Chains of the proteins cited; added tags and fusions are not shown. Residues count along the entry.
UniProt P42263, 29-894: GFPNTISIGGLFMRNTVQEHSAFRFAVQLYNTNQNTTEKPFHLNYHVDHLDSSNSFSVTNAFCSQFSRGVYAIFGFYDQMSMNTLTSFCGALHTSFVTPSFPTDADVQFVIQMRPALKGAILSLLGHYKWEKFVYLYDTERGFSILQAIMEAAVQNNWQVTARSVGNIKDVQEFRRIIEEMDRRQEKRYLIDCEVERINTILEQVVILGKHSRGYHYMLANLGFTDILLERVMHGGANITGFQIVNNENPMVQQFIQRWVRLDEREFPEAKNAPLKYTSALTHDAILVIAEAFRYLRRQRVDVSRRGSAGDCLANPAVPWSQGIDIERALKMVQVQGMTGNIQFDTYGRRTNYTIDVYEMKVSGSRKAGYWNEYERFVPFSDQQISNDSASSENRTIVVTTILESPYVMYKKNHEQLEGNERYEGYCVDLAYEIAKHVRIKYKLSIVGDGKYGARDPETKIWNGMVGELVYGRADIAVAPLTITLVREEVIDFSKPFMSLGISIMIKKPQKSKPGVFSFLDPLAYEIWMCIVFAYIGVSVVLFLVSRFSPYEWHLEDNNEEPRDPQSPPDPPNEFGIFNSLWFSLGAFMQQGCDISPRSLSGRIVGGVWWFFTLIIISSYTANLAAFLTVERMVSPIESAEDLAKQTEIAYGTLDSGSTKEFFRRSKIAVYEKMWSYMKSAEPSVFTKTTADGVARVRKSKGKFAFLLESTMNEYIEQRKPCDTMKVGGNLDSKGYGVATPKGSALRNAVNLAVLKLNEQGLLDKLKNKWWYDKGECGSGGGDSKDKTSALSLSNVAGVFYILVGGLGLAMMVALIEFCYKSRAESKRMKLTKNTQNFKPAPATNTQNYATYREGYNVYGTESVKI

Biological target: T1, GluR3 receptor on normal human T-cells (Homo sapiens, UniProt P42263)
T1 construct: confirmed the surface expression of the GluR3 receptor on human T-cells; endogenous in cells; host or cells: normal human T-cells purified from fresh peripheral blood of healthy donors
Test: Immunofluorescence staining for surface GluR3 (FACSORT)
Type: cell-based
Details: 10^−5 M Glutamate
Method: FIG. 9 illustrates the inhibition of human T-cell Glutamate receptor expression by Glutamate. Normal human T-cells purified from fresh blood samples were incubated with Glutamate (10^−5 M), and surface GluR3 receptor measured in samples by double immunofluorescence assay at indicated intervals (5-60 minutes). Inhibition of GluR3 expression is expressed as the percentage of GluR3-positive cells from total T-cells, divided by the baseline (Untreated cells, 0 minutes) percentage. Note the rapid, time-dependent inhibition of GluR3 expression with Glutamate, reaching 80% of baseline at 20 minutes.
Normal human T-cells, isolated from fresh peripheral blood lymphocytes, or antigen-specific mouse T-cells (directed against myelin basic protein 87-99)(Levite M et al Proc Natl Acad Sci USA 1998; 95:12544-49) were subjected to double immunofluorescence staining, using a rat polyclonal anti-human GluR3 antibody, (100 μl of 10-50 μg/ml dilution per 1×10^6 cells/tube; 30 minutes on ice), or normal rat sera for control. The rat polyclonal antibody was purified in our laboratory, from rats immunized with a specific peptide derived from the extracellular domain of the GluR3 (termed GluR3B, a.a. 372-395). The cells were then stained with an FITC-conjugated goat anti-rat IgG (50 μl of 1:100 dilution). […] Fluorescence profiles were recorded in a FACSORT.

In the case of N[C@@H](CCC(=O)O)C(=O)O [Glutamate], the “Surface GluR3 expression relative to baseline (pre-Glutamate value)” value (20 minutes) is reported as 80% and the “Incubation time of strongest inhibition of surface GluR3 expression” value (intervals 5-60 minutes) is reported as 20 min.
